The data set can be described thus: Feline repeat dose toxicokinetic study of oral enteric-coated formulations. In kind it is in vivo. As to conditions: whole blood, cats, oral enteric-coated formulation, Mean. As to the method: Laboratory cats were given oral enteric-coated formulations of 0.15 mg/kg, 0.45 mg/kg, or 0.75 mg/kg rapamycin three times a week for four weeks. This represents a first-in-species repeat dose test toxicokinetic study in cats. Pharmacokinetic sampling was performed after the first and last doses. FIGS. 8 and 9 show the whole blood concentration of rapamycin for 48 hours following a single dose (FIG. 8) or for 72 hours following repeated doses (FIG. 9).

The values that follow come from patent US12599590B2, “Veterinary formulations comprising rapamycin and methods of using the same for treating animal disease” (TriviumVet DAC, priority 2019, dated 2026).

Molecules are shown by their SMILES.

`CO[C@H]1C[C@@H]2CC[C@@H](C)[C@@](O)(O2)C(=O)C(=O)N2CCCC[C@H]2C(=O)O[C@H]([C@H](C)C[C@@H]2CC[C@@H](O)[C@H](OC)C2)CC(=O)[C@H](C)/C=C(\C)[C@@H](O)[C@@H](OC)C(=O)[C@H](C)C[C@H](C)/C=C/C=C/C=C/1C` [rapamycin]: the Tmax (as a rule, the time from dosing to the highest level) by setting is: (0.15 mg/kg, 0.15 mg/kg three times a week, Day 26, whole blood) 2.5 h; (0.45 mg/kg, 0.45 mg/kg, Day 0, whole blood) 2.5 h.
